One compound from patent publication US20110067123A1, “MAO-B ELEVATION AS AN EARLY PARKINSON'S DISEASE BIOMARKER” (priority 2008, published 2011) can be followed below.

The test has as its system dopaminergic SN neurons. Description: Stereological TH+ SN cell counts in inducible astrocytic MAO-B transgenic mice. The conditions noted are these: dox-induced transgenic mice; co-treatment i.p. 10-30 mg/kg/day for two weeks; FIG. 3A.

The structures appear in SMILES notation. Entries after “also recorded” stand apart in the source; their conditions may differ.

In the case of `C#CCN(C)[C@H](C)Cc1ccccc1` [deprenyl], the “dopaminergic SN cell loss” value is reported as “prevented; also recorded: attenuated”.
